# Data: patent US20070009597A1, “Active substance combination comprising a compound with npy receptor affinity and a compound with 5-ht6 receptor affinity” (LABORATORIOS DEL DR. ESTEVE S.A., priority 2003, published 2007)
# Protein sequences, listed by entry. Tags and fused reporters are not part of them.
# UniProt P50406, whole entry: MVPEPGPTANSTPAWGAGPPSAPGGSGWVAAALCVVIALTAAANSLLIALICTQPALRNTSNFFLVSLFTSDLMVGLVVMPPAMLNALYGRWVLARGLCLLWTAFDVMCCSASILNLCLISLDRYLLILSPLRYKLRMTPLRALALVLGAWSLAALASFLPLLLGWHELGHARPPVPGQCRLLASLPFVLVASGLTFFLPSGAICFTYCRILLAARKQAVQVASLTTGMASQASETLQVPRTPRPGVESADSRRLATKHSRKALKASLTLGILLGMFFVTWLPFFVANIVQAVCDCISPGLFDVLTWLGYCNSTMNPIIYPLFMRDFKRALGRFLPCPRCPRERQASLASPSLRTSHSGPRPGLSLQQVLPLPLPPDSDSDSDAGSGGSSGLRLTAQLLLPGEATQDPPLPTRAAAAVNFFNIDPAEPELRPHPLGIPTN
# Biological target: T1, recombinant human 5HT6 receptor (Homo sapiens, UniProt P50406)
# T1 construct: purchased Receptor Biology; host or cells: HEK-293
# Experiment: Binding to the 5HT6 serotonin receptor ([3H]-LSD, HEK-293 cell membranes)
smiles,measurement,value
"CN1CC=C(c2cn(S(=O)(=O)C3CCCCC3)c3ccc(Cl)cc23)CC1 [Example 2h, 5-Chloro-1-cyclohexanesulfonyl-3-(1-methyl-1,2,3,6-tetrahydropyridine-4-yl)-1H-indole]",Ki,98.2 nM
